Measured values published in US7709479B1, “Quinazoline derivatives and their use as pharmaceuticals” (AstraZeneca, priority 1999, dated 2010).

Molecular target: T1, aurora2 kinase (Homo sapiens, UniProt O14965)
T1 sequence (O14965 1-403): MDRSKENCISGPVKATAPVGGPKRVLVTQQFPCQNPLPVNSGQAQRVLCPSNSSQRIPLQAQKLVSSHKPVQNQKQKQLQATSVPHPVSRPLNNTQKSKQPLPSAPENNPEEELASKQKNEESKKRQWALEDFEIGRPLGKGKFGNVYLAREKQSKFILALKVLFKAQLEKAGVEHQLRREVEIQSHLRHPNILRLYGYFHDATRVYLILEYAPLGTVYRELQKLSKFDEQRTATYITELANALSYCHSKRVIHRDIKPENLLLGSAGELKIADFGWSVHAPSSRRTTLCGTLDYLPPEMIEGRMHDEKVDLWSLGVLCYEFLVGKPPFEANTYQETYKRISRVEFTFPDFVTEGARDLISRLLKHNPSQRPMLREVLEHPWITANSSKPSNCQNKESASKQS
Experiment: biochemical

SMILES | IC50 [nM]
COc1cc2ncnc(Nc3ccc(C(=O)NCc4ccc(F)cc4)cc3)c2cc1OC [Compound 557] | 519
COc1cc2ncnc(Nc3ccc(NC(=O)c4ccccc4)cc3)c2cc1OC [Compound 1] | 374
